In patent US8349318B2, “Use of specifically engineered enzymes to enhance the efficacy of prodrugs” (The Board of Trustees of the University of Illinois, priority 2008, dated 2013):

Test system: SKBR-3
Assay: MTS cytotoxicity assay in breast cancer-derived cell line
Format: cell-based, human
Conditions: SKBR-3, 96 hours
Experimental: The cells were then exposed to varying amount of BVdU for 96 hours. The ability of the antibody-mutant dCK to phosphorylate BVdU was reflected by the reduced levels of cell viability compared with untreated control cells. Cell viability was measured using the MTS cytotoxicity assay according to the manufacturer's instructions (Promega). In short, the tetrazolium compound (3-(4,5-dimethylthiazol-2-yl)-5-(3-carboxymethoxyphenyl)-2-(4-sulfophenyl)-2H-tetrazolium, inner salt; MTS) was added to the cells. MTS was reduced by cellular dehydrogenase into formazan, which is soluble in tissue culture medium. Measuring formazan absorbance at a wavelength of 492 nm reflected levels of dehydrogenase enzyme activity found in metabolically-active cells. Since the production of formazan is proportional to the number of living cells, the intensity of the produced color is a good indication of the viability of the cells.

**Q.** Which “effect on cell viability / proliferation” value does the source give for “HERCEPTIN®: antibody immunologically-specific for the Her2/neu (erbB2) receptor” here?
**A.** no effect
